Columns and labels:
PI 3-kinase alpha = PI 3-kinase alpha (Homo sapiens (Human), UniProt P42336); conditions: read-out: Assay A PI3Kα IC50
Vps34 = Vps34 (Homo sapiens (Human), UniProt Q8NEB9); conditions: read-out: Assay C VPS34 IC50
mTOR = mTOR (Homo sapiens (Human), UniProt P42345); conditions: read-out: Assay G mTOR IC50
PI 4-kinase beta = PI 4-kinase beta (Homo sapiens (Human), UniProt Q9UBF8); conditions: read-out: Assay D PI4Kβ IC50
PI 3-kinase beta = PI 3-kinase beta (Homo sapiens (Human), UniProt P42338); conditions: read-out: Assay B PI3Kβ IC50

Protein sequences, listed by entry. Tags and fused reporters are not part of them. Lines headed by an entry give the natural chain unless they say otherwise; changes in a name come on top.
UniProt P42336, whole entry, looked up: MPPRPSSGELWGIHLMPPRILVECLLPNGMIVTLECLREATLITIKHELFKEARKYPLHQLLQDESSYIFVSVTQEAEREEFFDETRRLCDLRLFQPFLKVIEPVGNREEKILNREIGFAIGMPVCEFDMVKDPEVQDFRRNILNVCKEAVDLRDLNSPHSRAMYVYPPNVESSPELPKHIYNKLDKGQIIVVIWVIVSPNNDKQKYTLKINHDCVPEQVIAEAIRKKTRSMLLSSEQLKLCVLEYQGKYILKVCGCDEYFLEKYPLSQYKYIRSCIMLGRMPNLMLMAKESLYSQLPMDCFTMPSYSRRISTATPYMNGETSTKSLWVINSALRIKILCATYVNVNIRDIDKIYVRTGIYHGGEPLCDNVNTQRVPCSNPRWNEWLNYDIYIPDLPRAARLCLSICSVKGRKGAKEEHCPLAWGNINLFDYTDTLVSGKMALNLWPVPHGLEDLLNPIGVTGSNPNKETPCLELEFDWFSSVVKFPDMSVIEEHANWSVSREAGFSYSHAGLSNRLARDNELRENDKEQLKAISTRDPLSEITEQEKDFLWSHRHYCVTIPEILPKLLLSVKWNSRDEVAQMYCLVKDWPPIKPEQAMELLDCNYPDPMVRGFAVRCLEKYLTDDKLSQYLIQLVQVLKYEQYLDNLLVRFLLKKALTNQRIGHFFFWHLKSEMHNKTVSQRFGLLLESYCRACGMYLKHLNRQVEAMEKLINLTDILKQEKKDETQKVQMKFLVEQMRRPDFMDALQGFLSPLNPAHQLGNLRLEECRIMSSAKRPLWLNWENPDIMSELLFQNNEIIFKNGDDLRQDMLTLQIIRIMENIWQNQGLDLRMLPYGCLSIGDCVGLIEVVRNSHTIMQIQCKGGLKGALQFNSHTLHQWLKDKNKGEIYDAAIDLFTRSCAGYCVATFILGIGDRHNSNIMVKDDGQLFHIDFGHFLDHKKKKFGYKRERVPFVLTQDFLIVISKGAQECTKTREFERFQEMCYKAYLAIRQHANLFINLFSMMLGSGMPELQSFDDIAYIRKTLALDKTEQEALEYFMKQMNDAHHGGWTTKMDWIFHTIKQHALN
UniProt Q8NEB9, whole entry: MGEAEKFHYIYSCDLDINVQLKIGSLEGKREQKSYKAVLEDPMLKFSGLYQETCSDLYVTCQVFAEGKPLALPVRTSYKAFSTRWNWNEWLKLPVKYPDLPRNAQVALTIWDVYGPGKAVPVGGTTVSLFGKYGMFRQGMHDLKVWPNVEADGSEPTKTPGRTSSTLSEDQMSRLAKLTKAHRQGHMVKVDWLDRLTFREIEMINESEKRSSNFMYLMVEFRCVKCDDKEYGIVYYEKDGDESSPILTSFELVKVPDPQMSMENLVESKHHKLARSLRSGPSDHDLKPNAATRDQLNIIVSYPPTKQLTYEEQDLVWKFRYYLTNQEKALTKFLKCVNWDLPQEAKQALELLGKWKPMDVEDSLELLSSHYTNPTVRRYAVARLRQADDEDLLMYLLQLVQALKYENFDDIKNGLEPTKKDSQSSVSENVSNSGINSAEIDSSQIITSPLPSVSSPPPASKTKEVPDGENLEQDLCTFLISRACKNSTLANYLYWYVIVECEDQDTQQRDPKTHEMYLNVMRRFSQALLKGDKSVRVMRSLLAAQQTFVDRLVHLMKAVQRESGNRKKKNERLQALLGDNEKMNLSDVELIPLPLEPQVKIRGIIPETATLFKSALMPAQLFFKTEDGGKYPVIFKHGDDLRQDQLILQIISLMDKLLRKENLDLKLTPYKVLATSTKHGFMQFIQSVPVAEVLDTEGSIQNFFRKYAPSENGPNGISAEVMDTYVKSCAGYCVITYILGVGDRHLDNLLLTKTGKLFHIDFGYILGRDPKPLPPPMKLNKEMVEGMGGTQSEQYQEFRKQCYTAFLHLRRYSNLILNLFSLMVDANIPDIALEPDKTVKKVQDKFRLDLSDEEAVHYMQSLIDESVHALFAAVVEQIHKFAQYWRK
UniProt Q9UBF8: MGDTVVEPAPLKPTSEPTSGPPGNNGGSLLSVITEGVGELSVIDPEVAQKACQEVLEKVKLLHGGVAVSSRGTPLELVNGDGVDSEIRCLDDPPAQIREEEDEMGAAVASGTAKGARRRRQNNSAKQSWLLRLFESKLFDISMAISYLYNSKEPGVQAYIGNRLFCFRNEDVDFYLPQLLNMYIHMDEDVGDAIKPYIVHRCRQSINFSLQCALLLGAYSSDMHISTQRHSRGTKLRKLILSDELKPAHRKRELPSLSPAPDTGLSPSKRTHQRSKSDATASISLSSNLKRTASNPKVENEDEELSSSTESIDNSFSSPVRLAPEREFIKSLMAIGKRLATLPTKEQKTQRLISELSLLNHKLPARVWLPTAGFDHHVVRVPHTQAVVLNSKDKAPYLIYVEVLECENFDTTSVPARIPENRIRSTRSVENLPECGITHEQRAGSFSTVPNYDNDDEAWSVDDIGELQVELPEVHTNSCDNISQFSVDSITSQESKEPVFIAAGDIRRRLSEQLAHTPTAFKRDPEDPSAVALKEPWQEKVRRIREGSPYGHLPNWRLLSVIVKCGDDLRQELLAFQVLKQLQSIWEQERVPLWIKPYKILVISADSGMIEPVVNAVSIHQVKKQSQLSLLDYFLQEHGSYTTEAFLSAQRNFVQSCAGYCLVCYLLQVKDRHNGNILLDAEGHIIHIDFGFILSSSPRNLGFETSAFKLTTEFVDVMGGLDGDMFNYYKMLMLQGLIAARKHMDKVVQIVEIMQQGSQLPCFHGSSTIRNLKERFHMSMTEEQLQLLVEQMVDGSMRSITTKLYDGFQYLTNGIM
UniProt P42338: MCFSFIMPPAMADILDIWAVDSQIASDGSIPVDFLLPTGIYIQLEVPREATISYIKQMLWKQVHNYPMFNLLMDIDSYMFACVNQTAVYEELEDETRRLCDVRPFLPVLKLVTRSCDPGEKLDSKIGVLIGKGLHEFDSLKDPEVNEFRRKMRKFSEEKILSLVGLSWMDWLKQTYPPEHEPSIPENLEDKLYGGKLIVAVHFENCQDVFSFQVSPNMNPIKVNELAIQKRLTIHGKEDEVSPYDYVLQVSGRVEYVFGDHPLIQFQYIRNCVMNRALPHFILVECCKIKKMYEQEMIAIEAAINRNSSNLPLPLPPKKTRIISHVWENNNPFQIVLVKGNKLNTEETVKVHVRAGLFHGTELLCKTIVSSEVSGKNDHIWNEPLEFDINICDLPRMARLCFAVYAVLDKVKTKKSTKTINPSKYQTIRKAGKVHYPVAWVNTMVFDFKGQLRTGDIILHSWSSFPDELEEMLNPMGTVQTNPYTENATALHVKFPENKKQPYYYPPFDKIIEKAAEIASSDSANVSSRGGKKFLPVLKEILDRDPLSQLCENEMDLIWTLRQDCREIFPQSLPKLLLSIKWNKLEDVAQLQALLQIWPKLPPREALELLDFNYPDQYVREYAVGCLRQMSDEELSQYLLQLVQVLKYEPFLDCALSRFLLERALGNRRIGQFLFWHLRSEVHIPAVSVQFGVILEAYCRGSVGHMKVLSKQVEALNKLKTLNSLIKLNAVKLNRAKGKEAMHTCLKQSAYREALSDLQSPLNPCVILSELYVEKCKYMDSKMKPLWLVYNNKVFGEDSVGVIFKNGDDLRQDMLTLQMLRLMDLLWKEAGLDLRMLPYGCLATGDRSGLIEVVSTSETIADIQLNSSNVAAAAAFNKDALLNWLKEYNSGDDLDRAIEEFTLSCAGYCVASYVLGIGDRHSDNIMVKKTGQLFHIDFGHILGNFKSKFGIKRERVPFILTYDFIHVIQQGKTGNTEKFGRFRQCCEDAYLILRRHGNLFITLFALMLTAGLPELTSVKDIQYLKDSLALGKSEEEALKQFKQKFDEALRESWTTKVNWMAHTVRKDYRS

Cc1cc(-c2cc(-c3cc(S(=O)(=O)N4C[C@H](C)[C@@H](O)C4)ccc3C)cnc2N)on1 (relative stereo) [Example 101.3, trans-1-((3-(6-amino-5-(3-methylisoxazol-5-yl)pyridin-3-yl)-4-methylphenyl)sulfonyl)-4-methylpyrrolidin-3-ol]
IC50 (PI 3-kinase alpha): 800 nM

Cc1cc(-c2cc(-c3cc(S(=O)(=O)NCC4(CO)CCOCC4)ccc3C)cnc2N)on1 [Example 37.1, 3-(6-Amino-5-(3-methylisoxazol-5-yl)pyridin-3-yl)-N-((4-(hydroxymethyl)tetrahydro-2H-pyran-4-yl)methyl)-4-methylbenzenesulfonamide]
IC50 (Vps34): > 10000 nM
IC50 (mTOR): 8800 nM

Cc1cc(-c2cc(-c3cc(S(=O)(=O)N4CC(C)(O)C4)ccc3C)cnc2N)on1 [Example 37.28, 1-((3-(6-Amino-5-(3-methylisoxazol-5-yl)pyridin-3-yl)-4-methylphenyl)sulfonyl)-3-methylazetidin-3-ol]
IC50 (PI 3-kinase alpha): 580 nM

Cc1cc(-c2cc(-c3cc(S(=O)(=O)NC[C@@H]4CCCO4)ccc3C)cnc2N)on1 [Example 40, (S)-3-(6-Amino-5-(3-methylisoxazol-5-yl)pyridin-3-yl)-4-methyl-N-((tetrahydrofuran-2-yl)methyl)benzenesulfonamide]
IC50 (PI 3-kinase alpha): 440 nM

Cc1noc(-c2cc(-c3cc(S(N)(=O)=O)ccc3C)cnc2N)n1 [Example 75, 3-(6-Amino-5-(3-methyl-1,2,4-oxadiazol-5-yl)pyridin-3-yl)-4-methylbenzenesulfonamide]
IC50 (Vps34): > 10000 nM
IC50 (mTOR): 8200 nM

Cc1ccc(S(=O)(=O)N[C@H]2CC[C@H](O)CC2)cc1-c1cnc(N)c(-c2nc(CC(F)(F)F)no2)c1 [Example 78, trans-3-(6-Amino-5-(3-(2,2,2-trifluoroethyl)-1,2,4-oxadiazol-5-yl)pyridin-3-yl)-N-((1r,4r)-4-hydroxycyclohexyl)-4-methylbenzenesulfonamide]
IC50 (PI 3-kinase alpha): 90 nM

Cc1ccc(S(=O)(=O)NCC(C)(C)O)cc1-c1cnc(N)c(-c2cnco2)c1 [Example 94a, 3-(6-amino-5-(oxazol-5-yl)pyridin-3-yl)-N-(2-hydroxy-2-methylpropyl)-4-methylbenzenesulfonamide]
IC50 (mTOR): 3300 nM
IC50 (PI 4-kinase beta): 3800 nM

Cc1ncc(-c2cc(-c3cc(S(=O)(=O)NCC4COC4)ccc3C)cnc2N)o1 [Example 104.3, 3-(6-amino-5-(2-methyloxazol-5-yl)pyridin-3-yl)-4-methyl-N-(oxetan-3-ylmethyl)benzenesulfon-amide]
IC50 (PI 3-kinase beta): 2700 nM

Cc1ncc(-c2cc(-c3cc(S(=O)(=O)NCC4(O)CC4)ccc3C)cnc2N)o1 [Example 114.1, 3-(6-amino-5-(2-methyloxazol-5-yl)pyridin-3-yl)-N-((1-hydroxycyclopropyl)methyl)-4-methylbenzenesulfon-amide]
IC50 (PI 3-kinase beta): 1400 nM

Source: patent publication US10112926B2 (priority 2014, dated 2018)
